Results: patent US9303092B2, “Methamphetamine-like hapten compounds, linkers, carriers and compositions and uses thereof” (The Board of Trustees of the University of Arkansas, priority 2000, dated 2016)

Key:
[1] = (+)METH brain concentrations in overdose and mAb pretreatment models; type: in vivo, rat; details: 1 mg/kg iv (+)METH dose without mAb
Experimental: The overdose model was designed to mimic a drug abuser taking a high iv (+)METH dose and treated with (+)METH mAb in the emergency room. In this model, rats received 1 mg/kg (+)METH (iv) followed 30 min later by an anti-(+)METH mAb dose. The mAb pretreatment model was designed to mimic an abuser in drug treatment administered an anti-(+)METH mAb medication at the start of behavioral modification therapy who relapses to (+)METH use. In this model, rats were pretreated with anti-(+)METH mAb6H4 and received a 1 mg/kg iv (+)METH dose the following day. This dose (without mAb) produced about 2.5 hrs of locomotor effects. Rats (3/time point) were sacrificed at varied times after (+)METH administration to determine (+)METH brain concentrations.

[2] = (+)-Methamphetamine and (+)-amphetamine pharmacokinetic studies in serum and brain with and without mAb6H4; details: for AUCbrain AUCserum ratio Treated / Molar Ratio of (+)-AMP to (+)-METH AUC Treated: mAb treated; for AUCbrain AUCserum ratio Control / T1/2λz Control / AUC38 min-[…] Control / Molar Ratio of (+)-AMP to (+)-METH AUC Control: without treatment; for T1/2λz Control: 1-mg/kg i.v. (+)-METH; for distribution half-life: two-compartment model

With (+)-methamphetamine [(+)METH] the “duration of locomotor effects” value [1] was “about 2.5 hrs”, the “AUCbrain AUCserum ratio Treated” value ([2]; Brain row) was 0.02 and the “AUCbrain AUCserum ratio Control” value ([2]; Brain row) was 9.6. The “T1/2λz Control” value ([2]; Brain) was 57 min, the “Molar Ratio of (+)-AMP to (+)-METH AUC Treated” value ([2]; Brain) was 1.26 and the “AUC38 min-[…] Control” value ([2]; Brain) was 1182 ng·h/g. For the same substance, the “Molar Ratio of (+)-AMP to (+)-METH AUC Control” value ([2]; Brain) was 0.49, the “AUCbrain AUCserum ratio Treated” value ([2]; Serum row) was 1 and the “AUCbrain AUCserum ratio Control” value ([2]; Serum row) was 1. The “T1/2λz Control” value ([2]; Serum) was 64.8 min, the “AUC38 min-[…] Treated” value ([2]; Serum, 1-mol equivalent dose of mAb at 30 min) was 12,266 ng · h/ml and the “Molar Ratio of (+)-AMP to (+)-METH AUC Treated” value ([2]; Serum) was 0.01. For the same substance, the “AUC38 min-[…] Control” value ([2]; Serum) was 123 ng·h/mL, the “Molar Ratio of (+)-AMP to (+)-METH AUC Control” value ([2]; Serum) was 0.49 and the “time of highest / apparent maximum concentrations in serum and brain” value ([2]; after 1.0-mg/kg i.v. (+)-methamphetamine) was 1 min. For the same substance, the distribution half-life ([2]; brain) was 26 min and the distribution half-life ([2]; serum) was 1.7 min.
